Cyclic peptide permeability, from CycPeptMPDB

Values of Kelly et al. 2021, doi:10.1021/jacs.0c06115, as listed in CycPeptMPDB.

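The data file gives no further conditions (lipid, pH, time, direction or concentration), and values from different papers need not be comparable. Other peptides of the study may be missing here. Peptides that the database sets to -10, its floor, are left out.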

PAMPA is the parallel artificial membrane permeability assay, which has no cells and reads passive diffusion.
Values are log10 P with P in cm/s, so -5 is more permeable than -7.

| structure (SMILES) | PAMPA (log10 cm/s) |
|---|---|
| CC(=O)N1CCC[C@@H]1C(=O)N(C)[C@@H](CC(C)C)C(=O)N[C@@H]1C(=O)N[C@@H](CC(C)C)C(=O)N[C@H](CC(C)C)C(=O)N[C@H](CC(C)C)C(=O)N[C@@H](C)C(=O)N[C@@H](CC(C)C)C(=O)N2CCC[C@H]2C(=O)O[C@@H]1C | -7.02 |
| CC(=O)N1CCC[C@@H]1C(=O)N(C)[C@@H](CC(C)C)C(=O)N[C@@H]1C(=O)N[C@@H](CC(C)C)C(=O)N[C@@H](CC(C)C)C(=O)N[C@@H](CC(C)C)C(=O)N(C)[C@@H](C)C(=O)N[C@H](CC(C)C)C(=O)N2CCC[C@H]2C(=O)O[C@@H]1C | -6.43 |
| CC(=O)N1CCC[C@@H]1C(=O)N(C)[C@@H](CC(C)C)C(=O)N[C@@H]1C(=O)N(C)[C@H](CC(C)C)C(=O)N(C)[C@H](CC(C)C)C(=O)N(C)[C@H](CC(C)C)C(=O)N(C)[C@@H](C)C(=O)N[C@@H](CC(C)C)C(=O)N2CCC[C@H]2C(=O)O[C@@H]1C | -5.46 |
| CC(=O)N1CCC[C@H]1C(=O)N(C)[C@@H](CC(C)C)C(=O)N[C@@H]1C(=O)N(C)[C@H](CC(C)C)C(=O)N[C@@H](CC(C)C)C(=O)N[C@@H](CC(C)C)C(=O)N(C)[C@@H](C)C(=O)N[C@H](CC(C)C)C(=O)N2CCC[C@@H]2C(=O)O[C@@H]1C | -6.11 |
| CC(=O)N1CCC[C@@H]1C(=O)N(C)[C@@H](CC(C)C)C(=O)N[C@@H]1C(=O)N[C@H](CC(C)C)C(=O)N[C@@H](CC(C)C)C(=O)N[C@H](CC(C)C)C(=O)N[C@H](C)C(=O)N[C@H](CC(C)C)C(=O)N2CCC[C@@H]2C(=O)O[C@@H]1C | -6.65 |
| CC(=O)N1CCC[C@@H]1C(=O)N(C)[C@@H](CC(C)C)C(=O)N[C@@H]1C(=O)N(C)[C@H](CC(C)C)C(=O)N(C)[C@H](CC(C)C)C(=O)N[C@H](CC(C)C)C(=O)N(C)[C@@H](C)C(=O)N[C@H](CC(C)C)C(=O)N2CCC[C@@H]2C(=O)O[C@@H]1C | -5.66 |
| CC(=O)N1CCC[C@H]1C(=O)N[C@@H]1C(=O)N[C@H](CC(C)C)C(=O)N(C)[C@@H](CC(C)C)C(=O)N(C)[C@H](CC(C)C)C(=O)N[C@H](CC(C)C)C(=O)N(C)[C@H](C)C(=O)N[C@@H](CC(C)C)C(=O)N2CCC[C@@H]2C(=O)O[C@@H]1C | -4.92 |
| CC(=O)N[C@@H]1C(=O)N2CCC[C@H]2C(=O)N(C)[C@H](CC(C)C)C(=O)N[C@H](CC(C)C)C(=O)N[C@@H](CC(C)C)C(=O)N[C@@H](CC(C)C)C(=O)N[C@H](C)C(=O)N[C@@H](CC(C)C)C(=O)N2CCC[C@@H]2C(=O)O[C@@H]1C | -7.27 |
| CC(=O)N1CCC[C@H]1C(=O)N[C@@H]1C(=O)N[C@H](CC(C)C)C(=O)N[C@@H](CC(C)C)C(=O)N(C)[C@@H](CC(C)C)C(=O)N[C@H](CC(C)C)C(=O)N(C)[C@@H](C)C(=O)N[C@@H](CC(C)C)C(=O)N2CCC[C@@H]2C(=O)O[C@@H]1C | -4.91 |
| CC(=O)N1CCC[C@H]1C(=O)N[C@@H]1C(=O)N[C@H](CC(C)C)C(=O)N[C@@H](CC(C)C)C(=O)N(C)[C@H](CC(C)C)C(=O)N(C)[C@H](CC(C)C)C(=O)N(C)[C@H](C)C(=O)N[C@@H](CC(C)C)C(=O)N2CCC[C@@H]2C(=O)O[C@@H]1C | -5.64 |
| CC(=O)N1CCC[C@@H]1C(=O)N(C)[C@H](CC(C)C)C(=O)N[C@@H]1C(=O)N(C)[C@H](CC(C)C)C(=O)N(C)[C@H](CC(C)C)C(=O)N[C@H](CC(C)C)C(=O)N(C)[C@H](C)C(=O)N[C@H](CC(C)C)C(=O)N2CCC[C@H]2C(=O)O[C@@H]1C | -5.30 |
| CC(=O)N1CCC[C@H]1C(=O)N(C)[C@H](CC(C)C)C(=O)N[C@@H]1C(=O)N(C)[C@H](CC(C)C)C(=O)N(C)[C@H](CC(C)C)C(=O)N[C@H](CC(C)C)C(=O)N(C)[C@H](C)C(=O)N[C@@H](CC(C)C)C(=O)N2CCC[C@@H]2C(=O)O[C@@H]1C | -5.36 |
| CC(=O)N1CCC[C@H]1C(=O)N(C)[C@@H](CC(C)C)C(=O)N[C@@H]1C(=O)N[C@@H](CC(C)C)C(=O)N(C)[C@@H](CC(C)C)C(=O)N(C)[C@@H](CC(C)C)C(=O)N(C)[C@@H](C)C(=O)N[C@@H](CC(C)C)C(=O)N2CCC[C@@H]2C(=O)O[C@@H]1C | -5.75 |
| CC(=O)N1CCC[C@H]1C(=O)N(C)[C@@H](CC(C)C)C(=O)N[C@@H]1C(=O)N[C@H](CC(C)C)C(=O)N(C)[C@H](CC(C)C)C(=O)N(C)[C@@H](CC(C)C)C(=O)N(C)[C@@H](C)C(=O)N[C@@H](CC(C)C)C(=O)N2CCC[C@H]2C(=O)O[C@@H]1C | -5.39 |
| CC(=O)N1CCC[C@H]1C(=O)N(C)[C@@H](CC(C)C)C(=O)N[C@@H]1C(=O)N[C@H](CC(C)C)C(=O)N(C)[C@@H](CC(C)C)C(=O)N[C@@H](CC(C)C)C(=O)N(C)[C@H](C)C(=O)N[C@H](CC(C)C)C(=O)N2CCC[C@@H]2C(=O)O[C@@H]1C | -5.83 |

Extract of 2 entries:

structure (SMILES)	PAMPA (log10 cm/s)
CC(=O)N1CCC[C@H]1C(=O)N[C@@H]1C(=O)N[C@H](CC(C)C)C(=O)N[C@@H](CC(C)C)C(=O)N(C)[C@H](CC(C)C)C(=O)N(C)[C@H](CC(C)C)C(=O)N(C)[C@H](C)C(=O)N[C@@H](CC(C)C)C(=O)N2CCC[C@@H]2C(=O)O[C@@H]1C	-5.64
CC(=O)N1CCC[C@H]1C(=O)N(C)[C@H](CC(C)C)C(=O)N[C@@H]1C(=O)N(C)[C@H](CC(C)C)C(=O)N(C)[C@H](CC(C)C)C(=O)N[C@H](CC(C)C)C(=O)N(C)[C@H](C)C(=O)N[C@@H](CC(C)C)C(=O)N2CCC[C@@H]2C(=O)O[C@@H]1C	-5.36